For one data set, the target named is T1, UGT1A9 (Homo sapiens, UniProt O60656).
T1 sequence (O60656 26-530): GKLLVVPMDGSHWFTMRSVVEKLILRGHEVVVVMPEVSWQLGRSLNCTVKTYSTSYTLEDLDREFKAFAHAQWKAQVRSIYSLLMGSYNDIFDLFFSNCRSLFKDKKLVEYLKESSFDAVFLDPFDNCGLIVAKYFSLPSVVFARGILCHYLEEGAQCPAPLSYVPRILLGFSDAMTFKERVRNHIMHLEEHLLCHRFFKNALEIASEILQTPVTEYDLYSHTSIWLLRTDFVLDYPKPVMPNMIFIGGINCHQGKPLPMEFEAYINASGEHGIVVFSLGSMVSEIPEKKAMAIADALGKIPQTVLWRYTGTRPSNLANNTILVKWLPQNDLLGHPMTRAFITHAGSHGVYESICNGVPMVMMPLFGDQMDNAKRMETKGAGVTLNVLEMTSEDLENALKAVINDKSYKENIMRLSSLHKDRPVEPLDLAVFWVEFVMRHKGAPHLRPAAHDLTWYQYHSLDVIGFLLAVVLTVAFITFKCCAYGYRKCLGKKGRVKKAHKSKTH
The data set is described as follows: Inhibition of raloxifene glucuronidation by recombinant UGT1A9 Supersomes.

Another data set has as its target T2, UGT1A3 (Homo sapiens, UniProt P35503).
T2 sequence (P35503 29-534): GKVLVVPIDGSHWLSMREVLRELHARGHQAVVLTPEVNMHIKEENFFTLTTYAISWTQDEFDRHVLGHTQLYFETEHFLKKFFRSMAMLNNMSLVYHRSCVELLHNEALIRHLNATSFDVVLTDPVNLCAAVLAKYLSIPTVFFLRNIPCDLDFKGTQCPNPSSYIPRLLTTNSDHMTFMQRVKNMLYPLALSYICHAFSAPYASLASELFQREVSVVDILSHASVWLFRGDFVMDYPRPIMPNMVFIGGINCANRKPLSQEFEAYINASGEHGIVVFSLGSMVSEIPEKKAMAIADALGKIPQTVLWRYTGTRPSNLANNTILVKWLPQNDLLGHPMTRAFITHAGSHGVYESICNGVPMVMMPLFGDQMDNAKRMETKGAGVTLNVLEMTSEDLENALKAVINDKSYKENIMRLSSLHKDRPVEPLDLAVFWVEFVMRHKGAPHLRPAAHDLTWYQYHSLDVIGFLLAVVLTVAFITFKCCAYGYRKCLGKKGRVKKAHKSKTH
The data set is described as follows: Inhibition of raloxifene glucuronidation by recombinant UGT1A3 Supersomes.

The conditions of data set [1]: HIV-infected patients; cited from earlier work.

Structures are written as SMILES.

For `O=C(O)Cc1ccccc1Nc1c(Cl)cccc1Cl` [Diclofenac, reference compound], the “inhibition of raloxifene glucuronidation, in words” value on UGT1A9 and at UGT1A3 was “poor inhibitors” each time.
As for `CCCC(CCC)C(=O)O` [Valproic acid], in data set [1], the “increase in zidovudine plasma AUC on co-administration” value is recorded as 2 fold.
